The values that follow are results of earlier work, collected in patent US9901549B2, “Method for treating vaginal dryness by administering transient receptor potential cation channel subfamily M member 8 (TRPM8) receptor agonists” (UNIVERSIDAD MIGUEL HERNÁNDEZ DE ELCHE, priority 2010, dated 2018).

Sequences of proteins named here, by UniProt entry; tags and fusion partners are left off.
UniProt Q7Z2W7, whole entry: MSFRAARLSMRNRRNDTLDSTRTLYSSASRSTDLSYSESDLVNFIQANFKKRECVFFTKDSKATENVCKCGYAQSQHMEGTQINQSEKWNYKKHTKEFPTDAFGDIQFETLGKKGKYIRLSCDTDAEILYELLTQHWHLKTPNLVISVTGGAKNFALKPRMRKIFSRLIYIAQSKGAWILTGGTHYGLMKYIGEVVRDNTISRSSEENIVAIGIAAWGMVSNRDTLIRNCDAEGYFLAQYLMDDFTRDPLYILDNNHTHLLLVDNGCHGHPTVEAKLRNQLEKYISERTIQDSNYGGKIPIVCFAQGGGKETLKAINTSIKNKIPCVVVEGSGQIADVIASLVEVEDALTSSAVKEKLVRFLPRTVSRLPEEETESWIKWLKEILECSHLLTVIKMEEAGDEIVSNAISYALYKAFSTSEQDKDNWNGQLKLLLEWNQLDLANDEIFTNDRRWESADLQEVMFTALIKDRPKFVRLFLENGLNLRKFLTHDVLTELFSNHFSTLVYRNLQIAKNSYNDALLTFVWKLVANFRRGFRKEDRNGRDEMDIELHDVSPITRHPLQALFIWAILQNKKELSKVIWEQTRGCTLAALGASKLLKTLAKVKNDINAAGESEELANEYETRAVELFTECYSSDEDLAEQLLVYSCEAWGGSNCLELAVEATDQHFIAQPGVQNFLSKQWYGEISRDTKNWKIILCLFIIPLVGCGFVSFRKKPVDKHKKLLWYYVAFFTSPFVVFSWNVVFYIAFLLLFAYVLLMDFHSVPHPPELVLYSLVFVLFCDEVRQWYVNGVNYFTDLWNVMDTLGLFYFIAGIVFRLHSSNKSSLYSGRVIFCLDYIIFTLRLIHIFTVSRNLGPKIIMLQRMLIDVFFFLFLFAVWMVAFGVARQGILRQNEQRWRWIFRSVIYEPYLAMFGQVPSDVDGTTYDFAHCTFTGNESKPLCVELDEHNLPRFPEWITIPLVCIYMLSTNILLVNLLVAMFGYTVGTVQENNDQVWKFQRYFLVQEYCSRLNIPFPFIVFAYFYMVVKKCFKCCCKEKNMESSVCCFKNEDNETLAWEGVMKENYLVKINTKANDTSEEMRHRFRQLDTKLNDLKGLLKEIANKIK

In the data set the target is native TRPM8 channel (Homo sapiens, UniProt Q7Z2W7). Particulars: read-out: IC50 menthol; SF; 20 μM menthol at 22° C.; Ortar et al. 2010; cited from earlier work.

As for `CC(C)[C@@H]1CC[C@@H](C)C[C@H]1NC(=O)Oc1ccc(C(C)(C)C)cc1`, the IC50 was 100 nM.

A word on the IC50: it is the concentration at which inhibition is half-maximal.
